This is a selection; strong and weak results do not stand in their true shares. The source made the active and inactive calls.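 Rule for the calls: active = activation of at least 50%, plus an integration ratio under a set limit after plate pattern correction; inactive = the rest.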
These compounds were tested on CRF-binding protein / CRF receptor 2 complex (human) (assay: activators of CRF-R2 with CRF-BP – cell-based, HEK293, calcium dye fluorescence, uHTS, primary screen (AID 588473;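 note: plate controls were neutral control wells without compound for no effect and CRF at EC100 for full effect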)). Details: calcium dye fluorescence (FLIPR), at 13.2 µM, active compounds read high, percent of saturating CRF peptide response.
For `O=C(NCC1(N2CCCCC2)CCCCC1)c1ccco1`, the activation was inactive: 0.48%.
`CN(C)c1ccc(C(=O)NCC2(N3CCCCC3)CCCCC2)cc1` was tested, and the activation was inactive: -2.26%.
For `Cn1c(=O)[nH]cc(N(CCCl)CCCl)c1=O`, the activation was inactive: 5.91%.
With `Cc1ccccc1NC1(C#N)CCN(Cc2ccccc2)CC1` the activation was inactive: 0.72%.
With `CCN1CCC(Nc2cccc(F)c2)CC1` the activation was inactive: 7.42%.
In the case of `Cc1ccc(NC2(C#N)CCN(Cc3ccccc3)CC2)cc1`, the activation is reported as inactive: 0.31%.
With `Cc1ccc(C(=O)NCC2(N3CCCCC3)CCCCC2)o1` the activation was inactive: -1.33%.
With `Fc1ccccc1NC1CCN(Cc2ccccc2)CC1` the activation was inactive: -2.45%.
`COc1cc(OC)cc(C(=O)NCC2(N3CCCCC3)CCCCC2)c1` was tested, and the activation was inactive: 0.65%.
For `CC(=O)N(c1ccccc1)C1CCNCC1`, the activation was inactive: 2.83%.
In the case of `CN1CCC(Nc2ccc(Cl)cc2)CC1`, the activation is reported as inactive: -1.2%.
`CCC(CO)(C(=O)OC1CN2CCC1CC2)c1ccccc1` (stereo unspecified) was tested, and the activation was inactive: -2.35%.
For `COc1cccc(C(=O)N(c2cc(C)cc(C)c2)C2CCN(C(=O)OC(C)(C)C)CC2)c1`, the activation was inactive: -4.38%.
`COc1cc(OC)cc(C(=O)NCC2(N3CCOCC3)CCCCC2)c1` was tested, and the activation was inactive: -0.23%.
In the case of `CCCOc1ccc(C(=O)NCC2(N(C)C)CCCCC2)cc1`, the activation is reported as inactive: -1.47%.
With `CC(C)(C)OC(=O)N1CCC(Nc2ccccc2)CC1` the activation was inactive: 0.5%.
`O=C(O)C1(Nc2ccccc2)CCN(Cc2ccccc2)CC1` was tested, and the activation was inactive: -0.91%.
`CCOc1ncccc1C(=O)NCC1(N2CCOCC2)CCCCC1` was tested, and the activation was inactive: -4.78%.
For `CN1CCC(Nc2ccc(F)c(Cl)c2)CC1`, the activation was inactive: 5.44%.
In the case of `CCc1cc(C(=O)NCC2(N3CCCCC3)CCCCC2)sc1C`, the activation is reported as inactive: 29%.
In the case of `O=C(OC1CN2CCC1CC2)C1c2ccccc2C=Cc2ccccc21` (stereo unspecified), the activation is reported as inactive: 1.24%.
With `N/C(=N\O)c1c(N)no[n+]1[O-]` the activation was inactive: 1.29%.
`CCOC(=O)N1CCC(Nc2ccc(C)cc2)CC1` was tested, and the activation was inactive: -1.99%.
For `COc1ccc(C(=O)NCC2(N3CCOCC3)CCCCC2)cc1OC`, the activation was inactive: -1.33%.
With `O=C(NCC1(N2CCOCC2)CCCCC1)c1cc(Br)ccc1Cl` the activation was inactive: -2.9%.
In the case of `COc1cc(C(=O)NCC2(N3CCOCC3)CCCCC2)cc(OC)c1C`, the activation is reported as inactive: -0.2%.
In the case of `c1ccc(CN2CCC(Nc3ccccc3)CC2)cc1`, the activation is reported as inactive: -0.99%.
`CCCN1CCC(Nc2cc(OC)cc(OC)c2)CC1` was tested, and the activation was inactive: -0.3%.
`Cc1cc(N(CCCl)CCCl)ccc1C=O` was tested, and the activation was inactive: -2.69%.
With `CN(C)C1(CNC(=O)c2cccc(C#N)c2)CCCCC1` the activation was inactive: -0.02%.
`CC(C)(C)OC(=O)N1CCC(N(C(=O)c2ccccc2)c2ccc(Cl)cc2)CC1` was tested, and the activation was inactive: -0.56%.
For `N#Cc1ccc(C(=O)NCC2(N3CCCCC3)CCCCC2)cc1`, the activation was inactive: 2.45%.
`COc1ccc(NC2CCN(C(=O)OC(C)(C)C)CC2)cc1` was tested, and the activation was inactive: -1.53%.
With `CC(C)c1ccc(C(=O)NCC2(N3CCOCC3)CCCCC2)cc1` the activation was inactive: -1.34%.
`CN1CCN(CCOC(=O)C(O)(c2ccccc2)c2ccccc2)CC1` was tested, and the activation was inactive: 0.1%.
With `O=C(NCC1(N2CCOCC2)CCCCC1)c1cc(=O)[nH]c2ccccc12` the activation was inactive: -0.71%.
`COc1cc(C(=O)NCC2(N3CCCCC3)CCCCC2)ccc1OC(F)F` was tested, and the activation was inactive: 0.19%.
For `O=C(NCC1(N2CCCCC2)CCCCC1)c1cccc(C(F)(F)F)c1`, the activation was inactive: 3.57%.
With `CSc1ccc(C(=O)NCC2(N3CCOCC3)CCCCC2)cc1` the activation was inactive: -1.76%.
For `O=C(NCC1(N2CCCCC2)CCCCC1)c1cccc([N+](=O)[O-])c1`, the activation was inactive: 0.68%.
In the case of `CCN1CCC(Nc2ccc(Cl)cc2)CC1`, the activation is reported as inactive: 3.51%.
In the case of `N#CC1(Nc2ccccc2)CCN(CCc2ccccc2)CC1`, the activation is reported as inactive: 3.79%.
In the case of `O=C(NCC1(N2CCCCC2)CCCCC1)c1ccc(OC(F)F)cc1`, the activation is reported as inactive: 1.69%.
`Cc1ccc(C(=O)NCC2(N(C)C)CCCCC2)o1` was tested, and the activation was inactive: -0.55%.
For `CCCOc1ccc(C(=O)NCC2(N(C)C)CCCCC2)cc1OC`, the activation was inactive: -2.96%.
For `CN1CCC(Nc2cccc(F)c2)CC1`, the activation was inactive: -1.19%.
For `O=C(NCC1(N2CCCCC2)CCCCC1)c1cncc(Br)c1`, the activation was inactive: 0.14%.
With `COc1cc(OC)c(C(=O)NCC2(N(C)C)CCCCC2)cc1OC` the activation was inactive: -1.43%.
`O=C(NCC1(N2CCOCC2)CCCCC1)c1cc(F)c(F)cc1Cl` was tested, and the activation was inactive: -0.59%.
With `COc1ccc(CN(CCCl)CCCl)cc1Cl` the activation was inactive: -1.91%.
In the case of `CN(C)c1cccc(C(=O)NCC2(N3CCCCC3)CCCCC2)c1`, the activation is reported as inactive: -2.67%.
`CC(C)c1ccc(NC2CCN(C(=O)OC(C)(C)C)CC2)cc1` was tested, and the activation was inactive: 3.95%.
In the case of `CCOC(=O)N1CCC(Nc2ccc(OC)cc2)CC1`, the activation is reported as inactive: 0.16%.
With `N#CC1(Nc2ccccc2)CCN(Cc2ccccc2)CC1` the activation was inactive: 1.1%.
`O=C(NCC1(N2CCCCC2)CCCCC1)c1ccc(Cl)s1` was tested, and the activation was inactive: -1.21%.
For `O=C(OC1CN2CCC1CC2)C1c2ccccc2Oc2ccccc21` (stereo unspecified), the activation was inactive: -0.05%.
For `COc1ccc(Cl)cc1C(=O)NCC1(N2CCOCC2)CCCCC1`, the activation was inactive: -1.76%.
For `O=C(NCC1(N2CCOCC2)CCCCC1)c1cc2ccccc2o1`, the activation was inactive: 1.13%.
With `O=C(NCC1(N2CCCCC2)CCCCC1)c1ccc(Cl)nc1` the activation was inactive: -1.62%.
With `Cc1cc(C)cc(N(C(=O)c2ccccc2)C2CCN(C(=O)OC(C)(C)C)CC2)c1` the activation was inactive: -0.49%.
With `CSc1ccccc1C(=O)NCC1(N2CCCCC2)CCCCC1` the activation was inactive: 0.06%.
With `Cc1cccc(NC2(C#N)CCN(Cc3ccccc3)CC2)c1` the activation was inactive: -2.59%.
For `O=C(NCC1(N2CCCCC2)CCCCC1)c1ccc(=O)[nH]c1`, the activation was inactive: -0.98%.
With `O=C(NCC1(N2CCCCC2)CCCCC1)c1cccs1` the activation was inactive: -0.76%.
`COc1ccc(C(=O)NCC2(N3CCCCC3)CCCCC2)cc1` was tested, and the activation was inactive: 0.56%.
`COc1ccc(C(=O)NCC2(N3CCCCC3)CCCCC2)c(OC)c1OC` was tested, and the activation was inactive: 0.72%.
With `CC(C)(C)OC(=O)N1CCC(N(C(=O)c2ccccc2)c2ccc(F)cc2)CC1` the activation was inactive: 0.13%.
With `CCOC(=O)N1CCC(Nc2cccc(C)c2)CC1` the activation was inactive: -2.28%.
For `COc1cc(C(=O)NCC2(N(C)C)CCCCC2)ccc1OC(F)F`, the activation was inactive: 0.79%.
With `CCCCOc1ccc(C(=O)NCC2(N3CCOCC3)CCCCC2)cc1` the activation was inactive: -0.99%.
For `O=P1(N(CCCl)CCCl)SCCCS1`, the activation was inactive: -0.93%.
With `O=C(NCC1(N2CCCCC2)CCCCC1)c1ccc(F)cc1` the activation was inactive: -0.41%.
With `CCOC(=O)N1CCC(Nc2ccc(F)cc2)CC1` the activation was inactive: -1.65%.
With `COc1ccc(NC2CCN(CCc3ccccc3)CC2)c(OC)c1` the activation was inactive: 0.76%.
In the case of `CCOc1ccc(C)cc1CN(CCCl)CCCl`, the activation is reported as inactive: -0.48%.
With `O=C1CCN(Cc2ccccc2)CC1` the activation was inactive: 2.88%.

From PubChem BioAssay AID588473 (Sanford-Burnham Center for Chemical Genomics, 2011)
